## Apparent affinities of Ab-95 variants for a coronavirus HR2 peptide

Reference: Engelhart et al. 2022, doi:10.1038/s41597-022-01779-4. File: FLAb, binding data.

Target: peptide PDVDLGDISGINAS, taken from heptad repeat 2 (HR2) of SARS-CoV-2 spike.

Each scFv is VH, a 15-residue (Gly4Ser)3 linker, VL, as in the parent Ab-95, and differs from it in the CDRs of the light chain only.
VH: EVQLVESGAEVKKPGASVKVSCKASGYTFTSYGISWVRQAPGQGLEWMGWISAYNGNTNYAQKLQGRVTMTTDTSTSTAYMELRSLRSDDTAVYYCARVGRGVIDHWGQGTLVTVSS
VL: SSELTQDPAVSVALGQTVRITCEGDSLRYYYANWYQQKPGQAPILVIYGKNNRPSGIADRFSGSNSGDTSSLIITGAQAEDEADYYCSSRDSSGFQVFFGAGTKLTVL

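The parent was found by panning a naive human phage display library on the peptide. Library AAYL52 holds single substitutions and randomly drawn double and triple substitutions in the CDRs. AlphaSeq pools MATa yeast showing the antibodies with MATalpha yeast showing the peptide. Binding brings cells together so that they mate, and sequencing counts the barcode pairs among the diploids. Each replicate has its own calibration line, from reference interactions of the BCL2 family. There are three technical replicates.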

Changes read parent residue, position, new residue, counted from the first residue of the VL shown.
All variants listed here change N33 of the VL, counted from its first residue.
The Kd shown is the geometric mean over detected replicates; a lower Kd is a better binder.
A pair that was not seen in any replicate is written "no signal"; this usually means weak binding, but a binder can also be missed.
Parent in this assay: reference entry 200 nM, copy in this library 180 nM.

changes,apparent Kd,replicates with signal,signal with controls
N33D R53T V97Q,35 µM,1 of 3,0 of 9
N33V N51Q V97E,34 µM,2 of 3,3 of 9
E23I D25E N33Q,26 µM,1 of 3,0 of 9
N33D N52P S89Q,15 µM,2 of 3,4 of 9
D25G N33G D91I,no signal,0 of 3,1 of 9
N33A S88M,150 nM,3 of 3,4 of 9
N33H S89E Q96H,2.1 µM,1 of 3,3 of 9
G24M N33A G94L,no signal,0 of 3,0 of 9
N33R S92L,2.2 µM,2 of 3,2 of 9
S26E N33Y S89A,5.7 µM,1 of 3,5 of 9
E23T Y30S N33V,350 nM,3 of 3,3 of 9
N33F S93I,10 µM,2 of 3,3 of 9
E23F N33F V97G,2.6 µM,3 of 3,4 of 9
R28Q N33R S55Q,430 nM,1 of 3,3 of 9
E23N N33A S92R,8.8 µM,2 of 3,1 of 9
G24A N33S D91N,3.3 µM,3 of 3,4 of 9
N33Y N52K R90D,56 µM,1 of 3,0 of 9
Y29D N33D S88Q,1.9 µM,3 of 3,1 of 9
N33E,460 nM,3 of 3,4 of 9
N33E P54D,no signal,0 of 3,0 of 9
L27H N33E S92R,19 µM,1 of 3,1 of 9
N33S R53D S88I,35 µM,2 of 3,2 of 9
Y30E N33R,7.6 nM,3 of 3,0 of 9
N33S F95Y F98Y,540 nM,3 of 3,2 of 9
Y29F N33H K50V,4.1 µM,1 of 3,4 of 9
N33C G49D F95I,32 µM,2 of 3,3 of 9
Y29K N33A Q96P,6.9 µM,2 of 3,6 of 9
N33L K50S D91G,no signal,0 of 3,0 of 9
D25A N33K K50C,3.3 µM,2 of 3,4 of 9
N33P G49N,no signal,0 of 3,2 of 9
Y30E N33Y D91R,25 µM,2 of 3,4 of 9
G24R D25Y N33S,3.3 µM,1 of 3,2 of 9
D25R N33H G49T,3.3 µM,3 of 3,4 of 9
D25L N33T N51R,200 nM,3 of 3,3 of 9
N33S R90K,9.6 µM,3 of 3,1 of 9
N33T G49K K50R,44 µM,1 of 3,3 of 9
N33A N51R S55K,1.8 µM,2 of 3,2 of 9
N33T P54F V97P,no signal,0 of 3,1 of 9
N33T G49M P54I,190 µM,1 of 3,2 of 9
Y31L N33Q D91R,2.6 µM,3 of 3,5 of 9
E23M G24I N33G,28 µM,3 of 3,5 of 9
E23N N33L S92A,11 µM,1 of 3,5 of 9
N33A D91P S92A,9.4 µM,3 of 3,4 of 9
N33M K50S N52Q,no signal,0 of 3,0 of 9
N33D P54N S88F,9.4 µM,2 of 3,3 of 9
N33S S93F,16 µM,3 of 3,5 of 9
N33R D91A G94M,820 nM,2 of 3,1 of 9
N33F K50D S88Q,no signal,0 of 3,1 of 9
N33Y S93L G94E,11 µM,2 of 3,3 of 9
G24K S26H N33M,no signal,0 of 3,2 of 9
G24R N33M,33 µM,3 of 3,4 of 9
N33L,89 µM,3 of 3,7 of 9
Y29V N33M,24 µM,3 of 3,3 of 9
N33G P54N S88P,69 µM,2 of 3,2 of 9
N33R R53V D91T,21 µM,2 of 3,4 of 9
Y30P N33R Q96A,22 µM,2 of 3,6 of 9
S26D N33T Q96W,26 µM,1 of 3,3 of 9
Y30S N33Y S55I,9.3 µM,3 of 3,4 of 9
N33H R53N,19 µM,1 of 3,3 of 9
D25V N33G R53N,no signal,0 of 3,2 of 9
D25C N33I K50D,4.3 µM,2 of 3,3 of 9
N33V R53W S55E,no signal,0 of 3,1 of 9
N33D K50L F95I,2.0 µM,1 of 3,1 of 9
E23R N33L D91N,93 µM,3 of 3,2 of 9
A32T N33M S92D,25 µM,2 of 3,3 of 9
N33Y S55F F95C,400 µM,1 of 3,3 of 9
N33S S88A G94L,980 nM,3 of 3,6 of 9
G24H S26R N33M,no signal,0 of 3,4 of 9
Y31L N33Y N51Y,no signal,0 of 3,1 of 9
S26F N33A,9.2 µM,3 of 3,1 of 9
N33E N51I S92G,no signal,0 of 3,1 of 9
G24K A32V N33Q,1.1 µM,2 of 3,4 of 9
S26K N33S F95P,no signal,0 of 3,1 of 9
L27C N33H R53M,36 µM,1 of 3,4 of 9
E23P N33S G94S,49 µM,3 of 3,2 of 9
N33Q G94T F98M,no signal,0 of 3,0 of 9
N33W S93W V97L,6.8 µM,2 of 3,4 of 9
N33V S88F F95H,no signal,0 of 3,3 of 9
N33S N52E S92I,95 nM,3 of 3,2 of 9

Nonspecific signal, from three strains lacking the peptide, appeared in 28% of pairings of library AAYL52, centred on 8.2 µM (5% of these signals below 800 nM); values are not corrected for it. For each scFv, signals with the empty controls are counted beside the result.